From publication PMC11324687

The chains behind the UniProt entries cited, without tags or fusion partners.
UniProt P35372, whole entry, looked up: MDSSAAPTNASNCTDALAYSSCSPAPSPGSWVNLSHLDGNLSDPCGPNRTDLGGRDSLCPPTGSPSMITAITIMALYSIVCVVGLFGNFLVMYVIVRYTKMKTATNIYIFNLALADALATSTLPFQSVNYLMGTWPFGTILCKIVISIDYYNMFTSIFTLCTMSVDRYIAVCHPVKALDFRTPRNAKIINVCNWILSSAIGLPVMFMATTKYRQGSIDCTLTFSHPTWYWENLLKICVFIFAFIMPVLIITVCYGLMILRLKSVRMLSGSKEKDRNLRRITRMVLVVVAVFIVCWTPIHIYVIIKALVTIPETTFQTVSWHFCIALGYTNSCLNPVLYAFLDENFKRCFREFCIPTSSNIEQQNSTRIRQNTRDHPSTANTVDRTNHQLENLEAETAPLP

How the values were obtained:
human MOR [1] = target: T1, human MOR (Homo sapiens, UniProt P35372); experiment: NanoBiT MOR β-arrestin 2 (βarr2) recruitment assay
human MOR [2] = target: T1, human MOR; experiment: GloSensor cAMP assay (inhibition of forskolin-stimulated cAMP accumulation)

Structure (SMILES): CN1CC[C@]23c4c5ccc(O)c4O[C@H]2C(=O)CC[C@H]3[C@H]1C5
- Emax (% DAMGO) (human MOR [1]; MOR-βarr2, Table 1 values converted with 100%/207%): 48.3 (46.5-50.2) % DAMGO
- Emax (% HM) (human MOR [1]; MOR-βarr2, separate set of experiments (Table S2-1), n = 3): 100 (96.5-104) % HM
- Emax (% HM) (human MOR [1]; MOR–βarr2, relative to hydromorphone, 95% CI in parentheses): 100 (96.3–104) % HM
- Emax (% DAMGO) (human MOR [2]; Table 1 values converted with 100%/105%): 95.2 (87.4-104) % DAMGO
- Emax (% HM) (human MOR [2]; relative to hydromorphone, 95% CI in parentheses): 100 (91.8–109) % HM
